Results from patent US20230381183A1, “USE OF FOLIC ACID AND FOLATE MODIFICATION IN INDUCING B-CELL IMMUNE TOLERANCE AND TARGETING mIgM-POSITIVELY-EXPRESSED B-CELL LYMPHOMA” (FUDAN UNIVERSITY, priority 2020, published 2023).

Test system: antibodies against trastuzumab
Experiment: Serum antibodies against trastuzumab by ELISA
Format: in vivo, BALB/c female mice
Conditions: 60 μg antibody/mouse tail vein days 0, 7, 14; serum day 21
Procedure: The BALB/c female mice (6 weeks old) were randomly divided into trastuzumab group, folate-trastuzumab group (obtained according to Example 2), FA gavage+trastuzumab group and physiological saline group, with 5 mice in each group. For the trastuzumab group and the folate-trastuzumab group, a dose of 60 μg antibody/mouse was administrated via tail vein injection on days 0, 7 and 14. For the FA gavage+trastuzumab group, each mouse was administered by gavage with 3 mg free folic acid per day for two weeks, and trastuzumab was administered via tail vein injection at a dose of 60 μg antibody/mouse on days 0, 7 and 14. For the physiological saline group, the mice were injected with physiological saline via tail vein on days 0, 7 and 14. One week after the last administration (day 21), the serum was collected from the mice, and was measured by ELISA for the antibodies against trastuzumab.

folate-trastuzumab: trastuzumab coupled with folate-PEG400-Mal
level of antibodies against trastuzumab: significantly lower than that in the trastuzumab group
